The subject of assay [1] is induced pluripotent stem cell (iPS cell) 201B7 strain. In words: Culture of iPS cells in albumin-added medium, culture results with ALP staining (Example 1). The assay is classed as cell-based, human. More on the design: key: +: when the albumin after a purification treatment was added to the medium, the cells proliferated; −: the cells did not proliferate except a part thereof. Particulars: albumin 2.6 g/L in medium, culture 1 week, triplicate. As to the method: (§1) Proliferative effect of various test compounds on induced pluripotent stem cell (iPS cell) was evaluated. As the iPS cell, 201B7 strain purchased from iPS Academia Japan, Inc. was used. Cell culture was performed under conditions of 5% CO2/37° C. and using a culture vessel (Nippon Becton Dickinson Company, Ltd., Falconculture petri dish or Falconculture plate) coated with a basal membrane matrix.
(§2) Various test compounds were added at given concentrations to a medium of “E8” composition (disclosed in Nature Methods, 2011, 8, 424-429, which is incorporated herein by reference in its entirety) currently considered to be the minimum composition for cultivating human pluripotent stem cells, and used for culture, from which the effect was studied.
Human serum-derived albumin was added to a medium to a final concentration of 2.6 g/L, and the culture results of each albumin were compared. Several kinds of albumins were subjected to a purification treatment (fatty acid removal treatment) to remove lipid. The culture period was 1 week. 13,000 viable cells were seeded as single-cell per well of a 6-well plate. As a basal membrane matrix, a fragment containing an active domain of laminin 511, which was purchased from Osaka University, was applied at 5 μg/well. Y-27632 was added (final concentration 10 μM, NACALAI TESQUE, INC.: 08945-84) to a medium to be used for seeding. From the next day, the cells were cultured in a medium free of Y-27632.
After the culture for 1 week, alkaline phosphatase (ALP) staining was performed to confirm maintenance of undifferentiation potency. For staining, alkaline phosphatase staining kit (Sigma-Aldrich Co. LLC.: 86-R) was used. […] However, when the albumin after a purification treatment was added to the medium, the cells proliferated. In addition, the amount of fatty acid carried (fatty acid content) of all these albumins was measured to find the results shown in Table 1.

For assay [2], the system named is iPS cells. In words: Differentiation rate of iPS cells by alkaliphosphatase (ALP) staining (Example 3). It counts as cell-based, human. Particulars: further cultured for 1 week after the first 1 week culture. As for the experimental part: Groups (I) to (III) were further cultured for 1 week after the above-mentioned culture, and the differentiation rate was measured by alkaliphosphatase (ALP) staining. The differentiation rate (%) was calculated by ALP negative colony number/total colony number×100 of each well. The differentiation rates of groups (I), (II), and (III) were 0.4%, 1.5% and 2.6%, respectively. […] Similar results were also obtained by observation of colony under a microscope, and it was confirmed that a higher purification level of albumin leads to the maintenance of undifferentiated state of iPS cells at a higher rate.

In assay [3] the test system is iPS cells. In words: Viable iPS cell number with human serum albumin of varying purification level (Example 3, FIG. 3). The assay is classed as cell-based. Particulars: albumin 2.6 g/L; 13,000 cells/well seeded; cultured 1 week. As to the method:
as §1, §2
Each above-mentioned group of human serum albumin was added to a medium at a final concentration of 2.6 g/L, and iPS cells were cultured. A 6-well plate coated with a fragment containing an active domain of laminin 511 at 5 μg/well (iMatrix-511 (Nippi, Incorporated)) as a basal membrane matrix was used. iPS cells were single-cell seeded at 13,000 cells/well and cultured for 1 week. Y-27632 (NACALAI TESQUE, INC.: 08945-84) was added at a final concentration of 10 μM only to a medium to be used for seeding.
The cells were detached from each well by TrypLE Select (Life Technologies: 12563-011), and the number of viable cells was measured. […]

[4] abbreviates: purification + (treatment with activated carbon).

Regarding “albumin C: Human serum-derived albumin, used unpurified or purified with activated carbon”, the figures for the culture results in assay [1] (setting [4]) and in assay [1] (purification −) were “+” and “−”, respectively. Regarding “Group (III): Human serum-derived albumin (NOVA Biologics) purified with 50 wt % activated carbon at pH 7”, the “differentiation rate (ALP negative colony number/total colony number×100)” value in assay [2] came out at 2.6%. Turning to “Group (IV): Human serum-derived albumin (NOVA Biologics) purified with 25 wt % activated carbon at pH 7”, the “effect on iPS cell growth (in words)” value in assay [3] is “clear growth inhibitory action”. With “albumin B: Human serum-derived albumin, used unpurified, purified with activated carbon, or re-adsorbed with fatty acid”, the culture results in assay [1] (setting [4]) is recorded as “+”; in assay [1] (purification −), “−”. With “Group (I): Human serum albumin (Sigma) treated by a fatty acid removal treatment”, in assay [2], the “differentiation rate (ALP negative colony number/total colony number×100)” value was 0.4%. For “Group (V): Human serum-derived albumin (NOVA Biologics) purified with 13 wt % activated carbon at pH 7”, the “effect on iPS cell growth (in words)” value in assay [3] is “clear growth inhibitory action”. Turning to “albumin A: Human serum-derived albumin, commercially obtained, used without purification”, the culture results in assay [1] (purification −) was “+”. Take “Group (II): Human serum-derived albumin (NOVA Biologics) purified with 50 wt % activated carbon at pH 4”: the “differentiation rate (ALP negative colony number/total colony number×100)” value in assay [2] turned out to be 1.5%.
